Patent US10925852B2, “Talc-bound compositions and uses thereof” (THE TRUSTEES OF COLUMBIA UNIVERSITY IN THE CITY OF NEW YORK, priority 2015, dated 2021)

Test system: NCI-28H cells
Experiment: Cytotoxicity assay (MTS) of NCI-28H cells: carboplatin, mitomycin, gemcitabine, talc, talc bound to these drugs (Example 22)
Conditions: single-agents

## CO[C@@]12[C@H](COC(N)=O)C3=C(C(=O)C(C)=C(N)C3=O)N1C[C@@H]1N[C@@H]12 [mitomycin, Mitomycin]
  cytotoxic effect on NCI-28H cells (in words): clear cytotoxic effect
